Measurements: ChEMBL document CHEMBL1156598, “Synthesis, biological evaluation, and molecular modeling of abiraterone analogues: novel CYP17 inhibitors for the treatment of prostate cancer” (J Med Chem, 2008)

Chains of the proteins cited; added tags and fusions are not shown.
UniProt P08684, whole entry: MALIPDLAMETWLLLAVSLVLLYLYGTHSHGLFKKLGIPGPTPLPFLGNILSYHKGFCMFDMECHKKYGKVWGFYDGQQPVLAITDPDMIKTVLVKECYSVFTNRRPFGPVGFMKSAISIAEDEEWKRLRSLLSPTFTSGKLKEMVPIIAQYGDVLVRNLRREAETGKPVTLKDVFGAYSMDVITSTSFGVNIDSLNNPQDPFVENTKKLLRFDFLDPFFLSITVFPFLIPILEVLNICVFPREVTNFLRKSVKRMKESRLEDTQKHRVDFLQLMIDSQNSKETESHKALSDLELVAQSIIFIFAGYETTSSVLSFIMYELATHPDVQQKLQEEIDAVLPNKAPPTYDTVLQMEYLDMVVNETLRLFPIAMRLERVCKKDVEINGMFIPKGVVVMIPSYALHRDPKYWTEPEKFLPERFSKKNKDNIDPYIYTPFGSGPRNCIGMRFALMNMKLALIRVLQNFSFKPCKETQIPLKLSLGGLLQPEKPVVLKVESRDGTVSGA

Target: Cytochrome P450 3A4 (Homo sapiens, UniProt P08684)
Test: Inhibition of recombinant CYP3A4 expressed in baculovirus-infected insect microsomes
Assay type: ADME, Microsome

C[C@]12CC[C@H](O)CC1=CC[C@@H]1[C@@H]2CC[C@]2(C)C(c3cccnc3)=CC[C@@H]12 [ABIRATERONE]
IC50: 2700 nM
